Assay results as given in US12201627B2, “NLRP3 modulators” (Innate Tumor Immunity, Inc., priority 2018, dated 2025).

Protein sequences, listed by entry. Tags and fused reporters are not part of them.
UniProt Q96P20, whole entry: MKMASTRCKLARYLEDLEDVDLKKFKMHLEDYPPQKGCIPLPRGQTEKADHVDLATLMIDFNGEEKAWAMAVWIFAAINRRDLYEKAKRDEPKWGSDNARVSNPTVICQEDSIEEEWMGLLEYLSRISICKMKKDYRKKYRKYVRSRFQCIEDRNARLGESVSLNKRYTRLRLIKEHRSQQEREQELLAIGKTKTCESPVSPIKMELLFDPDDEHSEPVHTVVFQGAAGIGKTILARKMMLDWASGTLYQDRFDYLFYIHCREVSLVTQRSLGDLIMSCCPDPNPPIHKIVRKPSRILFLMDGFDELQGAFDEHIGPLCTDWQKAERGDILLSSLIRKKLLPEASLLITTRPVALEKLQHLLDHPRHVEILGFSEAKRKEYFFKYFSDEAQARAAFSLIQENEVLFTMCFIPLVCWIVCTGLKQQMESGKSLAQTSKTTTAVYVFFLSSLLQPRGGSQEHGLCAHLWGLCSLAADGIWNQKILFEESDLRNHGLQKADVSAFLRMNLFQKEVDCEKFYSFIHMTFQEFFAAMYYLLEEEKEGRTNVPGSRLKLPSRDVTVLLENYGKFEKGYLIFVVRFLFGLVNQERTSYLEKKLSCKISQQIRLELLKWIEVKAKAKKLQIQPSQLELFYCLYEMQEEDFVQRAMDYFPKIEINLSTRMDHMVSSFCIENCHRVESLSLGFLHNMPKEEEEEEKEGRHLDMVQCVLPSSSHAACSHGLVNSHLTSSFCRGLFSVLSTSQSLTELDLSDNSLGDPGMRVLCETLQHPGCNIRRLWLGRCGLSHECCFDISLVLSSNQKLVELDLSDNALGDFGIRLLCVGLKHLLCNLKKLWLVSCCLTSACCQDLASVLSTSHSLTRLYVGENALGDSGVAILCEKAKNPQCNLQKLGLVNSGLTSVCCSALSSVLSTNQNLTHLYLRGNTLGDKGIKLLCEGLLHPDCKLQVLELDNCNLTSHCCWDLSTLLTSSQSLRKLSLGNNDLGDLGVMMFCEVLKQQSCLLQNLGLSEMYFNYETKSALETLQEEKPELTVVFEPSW

Biological target: NLRP3 (Homo sapiens, UniProt Q96P20)
Experiment: Measurement of IL-1β production in PMA-differentiated THP-1 cells (NLRP3 hIL1B)
Conditions: read-out: NLRP3 hILIB IC50
Procedure: Measurement of IL-1β Production in PMA-Differentiated THP-1 Cells
THP-1 cells were purchased from the American Type Culture Collection and sub-cultured according to instructions from the supplier. Prior to experiments, cells were cultured in RPMI 1640 containing 10% heat inactivated FBS, penicillin (100 units/ml) and streptomycin (100 μg/ml), and maintained in log phase prior to experimental setup. Prior to the experiment THP-1 were treated with PMA (Phorbol 12-myristate 13-acetate) ([…]) for 24 hours. The day of the experiment the media was removed and attaching cells were treated with trypsin for 2 minutes, cells were then collected, washed with PBS (phosphate buffer saline), spin down, resuspended in 2% heat inactivated FBS with RPMI at a concentration of 1×10^6 cells/ml, and 100 μl was plated in a 96 well plate. Compounds were dissolved in dimethyl sulfoxide (DMSO) and added to the culture medium to achieve desired concentration (e.g. 100, 30, 10, 3, 1, 0.3 or 0.1 μM). Cells were incubated with compounds for 4 hours. Cell free supernatant was collected and the production of IL-1β was evaluated by ELISA. […]
THP-1 cells were purchased from the American Type Culture Collection and sub-cultured according to instructions from the supplier. […] Cell free supernatant was collected and the production of IL-1β was evaluated by ELISA. […]

IC50: 110 nM
SMILES: Nc1nc2cc(-c3cc[nH]n3)ccc2c2c1nc(CN1CC(F)(F)C1)n2C1CC1
